Publication PMC5531539 (PLoS ONE, 2017)

Amino acid sequences for entries named in this document (tags omitted).
UniProt P15692, whole entry, looked up, stated change not applied: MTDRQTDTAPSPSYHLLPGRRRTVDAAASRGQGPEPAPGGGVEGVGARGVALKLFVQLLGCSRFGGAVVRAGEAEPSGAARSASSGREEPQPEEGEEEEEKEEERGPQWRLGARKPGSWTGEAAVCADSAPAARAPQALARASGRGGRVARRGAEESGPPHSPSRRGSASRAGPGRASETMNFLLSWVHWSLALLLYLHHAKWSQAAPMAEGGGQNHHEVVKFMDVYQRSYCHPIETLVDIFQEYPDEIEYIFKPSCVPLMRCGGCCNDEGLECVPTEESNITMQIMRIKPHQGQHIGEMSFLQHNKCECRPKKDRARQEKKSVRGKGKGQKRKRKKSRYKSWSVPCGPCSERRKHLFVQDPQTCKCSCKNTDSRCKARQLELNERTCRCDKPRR

B1: bH1 Fab HG99R (Fab, V domains shown)
VH: not shown
VL: DIQMTQSPSSLSASVGDRVTITCRASQDIPRSISGYVAWYQQKPGKAPKLLIYWGSYLYSGVPSRFSGSGSGTDFTLTISSLQPEDFATYYCQQHYTTPPTFGQGTKVEIK
notes: as the heavy chain of m4 with the stated change; numbers count on: Bostrom et al. [8]; as the light chain of m4; source: CHO-3E7, co-transfected, His-tag purified
B2: bH1 Fab HG99D (Fab, V domains shown)
VH: not shown
VL: DIQMTQSPSSLSASVGDRVTITCRASQDIPRSISGYVAWYQQKPGKAPKLLIYWGSYLYSGVPSRFSGSGSGTDFTLTISSLQPEDFATYYCQQHYTTPPTFGQGTKVEIK
notes: as for B1
B3: bH1 Fab HG99M (Fab, V domains shown)
VH: not shown
VL: DIQMTQSPSSLSASVGDRVTITCRASQDIPRSISGYVAWYQQKPGKAPKLLIYWGSYLYSGVPSRFSGSGSGTDFTLTISSLQPEDFATYYCQQHYTTPPTFGQGTKVEIK
notes: as for B1
B4: bH1 Fab HY33W (Fab, V domains shown)
VH: not shown
VL: DIQMTQSPSSLSASVGDRVTITCRASQDIPRSISGYVAWYQQKPGKAPKLLIYWGSYLYSGVPSRFSGSGSGTDFTLTISSLQPEDFATYYCQQHYTTPPTFGQGTKVEIK
notes: as for B1
B5: bH1 Fab HD98M (Fab, V domains shown)
VH: not shown
VL: DIQMTQSPSSLSASVGDRVTITCRASQDIPRSISGYVAWYQQKPGKAPKLLIYWGSYLYSGVPSRFSGSGSGTDFTLTISSLQPEDFATYYCQQHYTTPPTFGQGTKVEIK
notes: as for B1
B6: bH1 Fab HD98F (Fab, V domains shown)
VH: not shown
VL: DIQMTQSPSSLSASVGDRVTITCRASQDIPRSISGYVAWYQQKPGKAPKLLIYWGSYLYSGVPSRFSGSGSGTDFTLTISSLQPEDFATYYCQQHYTTPPTFGQGTKVEIK
notes: as for B1
B7: bH1 Fab HD98W (Fab, V domains shown)
VH: not shown
VL: DIQMTQSPSSLSASVGDRVTITCRASQDIPRSISGYVAWYQQKPGKAPKLLIYWGSYLYSGVPSRFSGSGSGTDFTLTISSLQPEDFATYYCQQHYTTPPTFGQGTKVEIK
notes: as for B1

biological target: T1, Full-length isoform 165 of human VEGF-A (Homo sapiens, UniProt P15692-4, strain); experiment: SPR; BioRad ProteOn XPR36; HER2 or VEGF amine-coupled to a GLC chip (about 150 RU); Fab as analyte, 3-fold dilutions from 30, 60 or 120 nM; 25C; PBS, 0.05% Tween 20, 3.4 mM EDTA; 1:1 binding model, KD from koff/kon; details: both partners purified
T1 construct: human vascular endothelial growth factor A, 165 amino acid isoform (VEGF165); also called VEGF165

Binding result, binds:
B1
B2
B3
B4
B5
B6
B7
